Reference: patent US7186743B2, “Substituted pyrazolyl compounds for the treatment of inflammation” (Pharmacia Corporation, priority 2001, dated 2007)

Sequences of proteins named here, by UniProt entry; tags and fusion partners are left off.
UniProt O14920, whole entry: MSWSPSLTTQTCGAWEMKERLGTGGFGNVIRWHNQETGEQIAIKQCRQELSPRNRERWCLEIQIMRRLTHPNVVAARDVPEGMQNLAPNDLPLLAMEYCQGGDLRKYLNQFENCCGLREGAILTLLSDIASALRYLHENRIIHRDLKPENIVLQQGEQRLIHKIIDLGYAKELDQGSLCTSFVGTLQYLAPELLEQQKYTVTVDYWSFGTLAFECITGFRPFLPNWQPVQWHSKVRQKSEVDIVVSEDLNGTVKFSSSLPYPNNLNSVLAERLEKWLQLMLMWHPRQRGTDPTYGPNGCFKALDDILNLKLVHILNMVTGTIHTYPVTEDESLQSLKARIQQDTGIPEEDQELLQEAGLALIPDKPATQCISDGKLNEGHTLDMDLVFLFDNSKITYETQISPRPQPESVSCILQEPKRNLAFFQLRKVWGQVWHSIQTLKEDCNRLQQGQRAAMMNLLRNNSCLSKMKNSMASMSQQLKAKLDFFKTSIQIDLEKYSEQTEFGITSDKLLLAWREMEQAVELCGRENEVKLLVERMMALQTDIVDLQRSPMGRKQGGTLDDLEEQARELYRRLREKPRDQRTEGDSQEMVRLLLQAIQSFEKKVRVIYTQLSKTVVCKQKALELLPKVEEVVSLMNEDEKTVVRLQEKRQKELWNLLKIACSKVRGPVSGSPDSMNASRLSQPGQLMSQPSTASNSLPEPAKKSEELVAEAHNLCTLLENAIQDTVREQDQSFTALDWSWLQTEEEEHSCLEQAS

Target: IKK2 (Homo sapiens, UniProt O14920)
Assay: IKKβ Resin Enzyme Assay (IKK2 resin)
Assay type: biochemical
Conditions: read-out: IKK2 Resin IC 50; Table 6

Compound: NC(=O)c1nn(-c2ccc(F)cc2)c2c1CCc1ccc(NC(=O)c3cc4c(cc3Cl)OCO4)cc1-2
- IC50: ≤ 1 µM
